Among the data in ChEMBL document CHEMBL3243935, “Analgesic and tranquilizing activity of 5,8-disubstituted 2-aminomethyl-3,4-dihydronaphthalenes” (J Med Chem, 1978) are Activity values, retold here.

Test [1] relates to Mus musculus. Kind of test: Analgesic activity in Swiss CD mouse at 100 mg/kg, ip measured 2 hrs post treatment by hot-plate method relative to control. The settings on record: route intraperitoneal. A general note: Hot-plate and tail-flick tests time the reaction to a heat stimulus.
For test [2], the system named is Mus musculus. Description: Analgesic activity in Swiss CD mouse at 100 mg/kg, ip measured 0.5 hr post treatment by hot-plate method relative to control. The settings on record: route intraperitoneal.
For test [3], the system named is Mus musculus. Kind of test: Analgesic activity in Swiss CD mouse assessed as elevation of response latency at 100 mg/kg, ip measured 2 hrs post treatment by tail flick method relative to control. Particulars: route intraperitoneal, strain Swiss CD.
Test [4] relates to Mus musculus. Kind of test: Analgesic activity in Swiss CD mouse assessed as elevation of response latency at 100 mg/kg, ip measured 0.5 hr post treatment by tail flick method relative to control. Particulars: route intraperitoneal, strain Swiss CD.

`COc1ccc(Cl)c2c1CCC(CN1CCC3(CC1)C(=O)NCN3c1ccccc1)=C2`: the Activity with Mus musculus [1] amounted to 167%; in the test with Mus musculus [2], 181%; in the test with Mus musculus [3] it was 103%; with Mus musculus [4], 97%.
